Experimental data as given in US9663463B2, “3-azabicyclo[3.1.0]hexane derivative and use thereof for medical purpose” (priority 2013, dated 2017).

Test: Plasma concentration of test substance at ED50 value (mice, LC/MS/MS)
Format: in vivo
Settings: at the ED50 value, at time of morphine administration, oral, linear regression from two doses
Procedure: The concentration of the test substances in blood plasma was confirmed by using mice of the same week-old for the same dose as that used in the evaluation of the anti-pruritic effect. The test substance was administered by forced oral administration of an administration vehicle prepared in a similar manner to that in the evaluation of the anti-pruritic effect under a non-fasting condition. The blood samples were collected from the orbital venous plexus, within from 15 minutes after the administration of the test substance to after 180 minutes at the maximum, for multiple times including the timing at which the morphine solution was intracisternally administered, under inhalation anesthesia with diethyl ether or isoflurane using a heparin-treated hematocrit tubes. The collected blood samples were immediately ice-cooled and centrifuged at 1,800 g for 15 minutes at 4° C., and the plasma fractions were transferred and stored under freezing at −30° C. or less until measurement.
The concentrations of the test substances in plasma were measured using LC/MS/MS. Furthermore, as the measurement samples for LC/MS/MS, the supernatants obtained by adding an internal standard substance and acetonitrile in an amount within a range from 5-fold to 10-fold of the amount of the plasma to the collected plasma samples, and removing proteins therefrom, was used.

CC[C@]1(c2cccc(NS(=O)(=O)C3CC3)c2)[C@@H]2CN(CCCC3(OC)CCC(F)(F)CC3)C[C@@H]21 [Example 6-(b), N-(3-{(1R,5S,6r)-3-[3-(4,4-difluoro-1-methoxycyclohexyl)propyl]-6-ethyl-3-azabicyclo[3.1.0]hexan-6-yl}phenyl)cyclopropanesulfonamide hydrochloride]
Plasma concentration of test substance: 7.94 nM

Where a name gives a salt, the structure may show the parent alone.
